What was measured:
Format in all cases: functional
Mus musculus [1] = species on record: Mus musculus; experiment: Compound was evaluated for low level mutagenicity
Mus musculus [2] = species on record: Mus musculus; experiment: Compound was evaluated for mutagenicity after threshold range
Mus musculus [3] = species on record: Mus musculus; experiment: Compound was evaluated for Carcinogenicity to produce 0.5 tumors per mouse (B.5)

Row | SMILES | Log 1/B+100 (Mus musculus [1]) | Log 1/Th+200 (Mus musculus [2]) | Log 1/B.5 (Mus musculus [3])
1 | ClCCN(CCCl)c1ccc(Cl)cc1 | 1.02 | 1.83 | –
2 | Nc1cc(N)cc(N(CCCl)CCCl)c1 | 0.85 | 0.31 | 5.41
3 | NS(=O)(=O)c1ccc(N(CCCl)CCCl)cc1 | 0.52 | 0.87 | 3.44
4 | COc1ccc(N(CCCl)CCCl)cc1 | 1.33 | – | 4.64
5 | CCCCc1ccc(N(CCCl)CCCl)cc1 | – | 1.59 | 3.59
